Target: T1, PARP1 (Homo sapiens, UniProt P09874)
T1 construct: endogenous in cells; host or cells: PC3
Assay: PARP1 trapping, chromatin fractionation (chromatin-bound fraction)
Assay type: cell-based
Details: HR-deficient SUM149PT-BRCA1mut, UWB1, C4-2B/MR compared with HR-proficient SUM149PT-BRCA1rev, UWB1+BRCA1, PC3; 0.01% MMS
Excerpt: The trapped PARP1 forms a toxic lesion and stalls the progress of replication forks. The replication fork collapses in BRCA1/2-deficient cancer cells, and then results in cell death. […] Six cancer cell lines were used in this assay, including two breast cancer cell lines, BRCA1-mutunt SUM149PT-BRCA1mut and SUM149PT-BRCA1rev where deleterious BRCA1 mutation is reverted to form a functional BRCA1, two ovarian cancer cell lines, BRCA1-null UWB1.289 and UWB1.289+BRCA1, a stable cell line in which wild-type BRCA1 function has been restored, and two prostate cancer cell lines, enzalutamide resistant C4-2B/MR which is homologous recombination (HR)-deficient due to Rad51 mutation, and enzalutamide insensitive PC3 which is HR-proficient.

The chains behind the UniProt entries cited, without tags or fusion partners.
UniProt P09874, whole entry, species assumed: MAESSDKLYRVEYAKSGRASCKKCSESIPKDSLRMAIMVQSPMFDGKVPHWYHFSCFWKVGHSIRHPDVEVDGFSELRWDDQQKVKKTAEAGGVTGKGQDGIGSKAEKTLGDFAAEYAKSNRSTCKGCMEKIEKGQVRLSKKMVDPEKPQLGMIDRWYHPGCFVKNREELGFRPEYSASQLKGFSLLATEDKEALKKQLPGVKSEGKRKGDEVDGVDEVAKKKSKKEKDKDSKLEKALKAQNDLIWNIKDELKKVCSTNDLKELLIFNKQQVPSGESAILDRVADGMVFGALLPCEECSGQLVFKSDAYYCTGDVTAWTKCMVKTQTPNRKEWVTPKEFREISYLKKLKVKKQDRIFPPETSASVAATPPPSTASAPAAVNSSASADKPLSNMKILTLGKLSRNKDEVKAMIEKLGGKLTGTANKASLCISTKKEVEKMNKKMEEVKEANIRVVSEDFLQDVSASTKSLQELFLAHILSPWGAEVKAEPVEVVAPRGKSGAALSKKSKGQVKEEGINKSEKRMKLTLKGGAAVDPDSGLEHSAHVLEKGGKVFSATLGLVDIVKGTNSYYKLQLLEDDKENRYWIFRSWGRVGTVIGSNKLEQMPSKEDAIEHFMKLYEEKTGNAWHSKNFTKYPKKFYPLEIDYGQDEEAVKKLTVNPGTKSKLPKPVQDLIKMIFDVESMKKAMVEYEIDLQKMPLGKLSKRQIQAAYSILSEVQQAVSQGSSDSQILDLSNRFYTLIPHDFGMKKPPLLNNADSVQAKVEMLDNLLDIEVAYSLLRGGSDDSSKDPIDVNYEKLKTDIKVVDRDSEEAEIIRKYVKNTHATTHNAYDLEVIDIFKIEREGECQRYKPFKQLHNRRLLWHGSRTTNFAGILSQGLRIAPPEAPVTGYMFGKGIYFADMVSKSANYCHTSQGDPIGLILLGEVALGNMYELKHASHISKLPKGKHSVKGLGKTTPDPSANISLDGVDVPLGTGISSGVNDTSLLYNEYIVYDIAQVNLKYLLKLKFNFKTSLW

Structure (SMILES): Cn1ncnc1[C@H]1c2n[nH]c(=O)c3cc(F)cc(c23)N[C@@H]1c1ccc(F)cc1 [TALA, Talazoparib, reference compound]
- accumulation of PARP1 protein in the chromatin-bound fraction: greatly increased accumulation of PARP1 protein in the chromatin-bound fraction

From patent publication US20260209193A1, “NOVEL INHIBITORS OF DNA DAMAGE RESPONSES FOR CANCER THERAPY” (The Regents of the University of California, priority 2022, published 2026)
